Key:
[1] = test system: human RIG-1 promoter (RIG-PROM-LUC reporter); assay: RIG-PROM-LUC luciferase reporter activity in response to inducers in transfected human cells; format: cell-based
[2] = test system: RIG-PROM-LUC construct mutated in the IRF-1 binding site; assay: mutant IRF-1 RIG-PROM-LUC luciferase reporter activity in response to inducers; format: cell-based, human; conditions: p69, DU-145 and HeLa cells; IFN-β 2000 units/ml, Adnull 100 pfu; FIG. 5A-C

IFN-β: β-interferon, Type-I interferon used as inducer at 100-2000 units/ml
inducibility of reporter over control ([1]; 70 W human melanoma cells, overall promoter activity much lower, FIG. 4): statistically significant inducibility over control | activation of promoter activity (RIG-PROM-LUC) ([1]; FM516 and HeLa cells, IFN-β induction greater than PolyIC:PolyIC and least with retinoic acid, FIG. 2): robust activation | induction of full length RIG-PROM-LUC reporter activity over control ([1]; p69, DU-145 and HeLa cells, IFN-β 2000 units/ml, Adnull 100 pfu, FIG. 5A-C): 3-7 fold | induction of reporter ([1]; p69 immortalized human prostate epithelial cells, FIG. 4): 3 fold | effect on activity of mutant IRF-1 RIG-PROM-LUC reporter [2]: did not affect

— patent publication US20080108067A1, “Cloning of the retinoic acid inducible gene-1 promoter and uses thereof” (priority 2004, published 2008)
